Test results reported in patent US9453062B2, “Glucose dependent insulinotropic polypeptide analogs, pharmaceutical compositions and use thereof” (Beijing Hanmi Pharmaceutical Co., Ltd., priority 2011, dated 2016).

Amino acid sequences for entries named in this document (tags omitted). Residues count along the entry.
UniProt P43220, 24-463: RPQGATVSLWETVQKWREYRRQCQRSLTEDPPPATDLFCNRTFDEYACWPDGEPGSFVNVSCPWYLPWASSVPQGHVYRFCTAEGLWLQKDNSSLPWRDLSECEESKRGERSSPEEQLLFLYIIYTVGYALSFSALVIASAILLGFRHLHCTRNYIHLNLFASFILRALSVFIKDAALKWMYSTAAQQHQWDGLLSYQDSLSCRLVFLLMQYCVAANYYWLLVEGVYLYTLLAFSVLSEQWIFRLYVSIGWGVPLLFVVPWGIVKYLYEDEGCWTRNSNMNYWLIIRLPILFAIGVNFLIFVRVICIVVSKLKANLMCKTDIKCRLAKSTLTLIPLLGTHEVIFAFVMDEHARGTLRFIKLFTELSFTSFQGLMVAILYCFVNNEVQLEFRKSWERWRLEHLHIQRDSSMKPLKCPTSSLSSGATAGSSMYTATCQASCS

Biological target: T1, hGLP-1R (Homo sapiens, UniProt P43220)
T1 construct: expressed in transfected cells; host or cells: CHO
Assay: hGLP-1R-mediated cAMP induction assay in CHO cell line;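 further: CHO cells expressing human GLP-1R, treated 30 min at 37 °C, intracellular cAMP measured by competitive fluorescent immunoassay and converted via a cAMP standard curve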
Type: cell-based
Details: Table 3; against native GLP-1

With `CC[C@H](C)[C@H](NC(=O)[C@H](CO)NC(=O)[C@H](Cc1ccc(O)cc1)NC(=O)[C@H](CC(=O)O)NC(=O)[C@H](CO)NC(=O)[C@@H](NC(=O)[C@H](Cc1ccccc1)NC(=O)[C@@H](NC(=O)CNC(=O)[C@H](CCC(=O)O)NC(=O)C(C)(C)NC(=O)[C@@H](N)Cc1ccc(O)cc1)[C@@H](C)O)[C@@H](C)O)C(=O)N[C@@H](Cc1ccc(O)cc1)C(=O)N[C@@H](CCSC)C(=O)N[C@@H](CCC(=O)O)C(=O)N[C@@H](CCCCN)C(=O)N[C@@H](CCC(=O)O)C(=O)N[C@@H](C)C(=O)N[C@H](C(=O)N[C@@H](CCCNC(=N)N)C(=O)N[C@@H](CCC(=O)O)C(=O)N[C@@H](Cc1ccccc1)C(=O)N[C@H](C(=O)N[C@@H](CS)C(=O)N[C@@H](Cc1c[nH]c2ccccc12)C(=O)N[C@@H](CC(C)C)C(=O)N[C@H](C(=O)N[C@@H](CCCCN)C(=O)NCC(=O)NCC(=O)N1CCC[C@H]1C(=O)N[C@@H](CO)C(=O)N[C@@H](CO)C(=O)NCC(=O)N[C@@H](C)C(=O)N1CCC[C@H]1C(=O)N1CCC[C@H]1C(=O)N1CCC[C@H]1C(=O)N[C@@H](CO)C(=O)N[C@@H](CCCCN)C(N)=O)C(C)C)[C@@H](C)CC)C(C)C` [Compound 105] the “GLP-1 Receptor Relative Potency” value was 11.7.
